Experimental data reported in PMC2997942 (Molecular pharmaceutics, 2010).

Target: T1, OCTN2 (Homo sapiens, UniProt O76082)
T1 sequence (O76082 1-557): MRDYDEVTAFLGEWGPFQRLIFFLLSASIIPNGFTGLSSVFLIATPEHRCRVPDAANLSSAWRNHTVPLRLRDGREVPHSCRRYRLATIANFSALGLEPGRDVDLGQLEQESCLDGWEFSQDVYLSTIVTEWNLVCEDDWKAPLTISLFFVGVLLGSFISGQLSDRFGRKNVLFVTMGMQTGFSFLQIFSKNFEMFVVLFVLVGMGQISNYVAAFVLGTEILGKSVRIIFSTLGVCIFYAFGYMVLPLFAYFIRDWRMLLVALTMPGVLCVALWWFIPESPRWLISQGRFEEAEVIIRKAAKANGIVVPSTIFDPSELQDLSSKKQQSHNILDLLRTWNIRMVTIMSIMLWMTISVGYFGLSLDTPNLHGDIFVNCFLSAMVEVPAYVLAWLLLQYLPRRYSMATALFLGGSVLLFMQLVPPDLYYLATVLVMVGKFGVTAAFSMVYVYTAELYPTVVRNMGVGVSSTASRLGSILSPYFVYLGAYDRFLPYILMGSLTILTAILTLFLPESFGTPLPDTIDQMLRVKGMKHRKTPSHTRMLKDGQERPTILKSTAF
Experiment: Inhibition of L-carnitine uptake in stably transfected hOCTN2-MDCK cells
Format: cell-based
Settings: Observed Ki (±SEM), test set, 10 min, competitive inhibition model

Question: With `Cc1nc2n(c(=O)c1CCN1CCC(c3noc4cc(F)ccc34)CC1)CCCC2` [Risperidone] as the compound, how does the Ki read?
Answer: The Ki was 144 ± 17 µM.
